# According to paper PMC11642044 (International Journal of Molecular Sciences, 2024):
# Protein sequences, listed by entry. Tags and fused reporters are not part of them.
# UniProt P30411, whole entry: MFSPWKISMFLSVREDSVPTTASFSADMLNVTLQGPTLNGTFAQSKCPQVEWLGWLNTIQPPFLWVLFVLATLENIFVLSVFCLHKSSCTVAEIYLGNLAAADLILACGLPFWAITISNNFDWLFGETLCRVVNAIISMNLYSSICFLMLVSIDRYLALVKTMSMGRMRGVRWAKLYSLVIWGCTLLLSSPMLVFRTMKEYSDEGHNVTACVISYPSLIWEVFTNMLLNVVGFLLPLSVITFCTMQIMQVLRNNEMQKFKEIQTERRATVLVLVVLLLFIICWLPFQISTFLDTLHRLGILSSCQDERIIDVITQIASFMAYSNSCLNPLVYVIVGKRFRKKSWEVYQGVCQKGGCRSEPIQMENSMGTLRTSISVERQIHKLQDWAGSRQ
# UniProt P32299, whole entry: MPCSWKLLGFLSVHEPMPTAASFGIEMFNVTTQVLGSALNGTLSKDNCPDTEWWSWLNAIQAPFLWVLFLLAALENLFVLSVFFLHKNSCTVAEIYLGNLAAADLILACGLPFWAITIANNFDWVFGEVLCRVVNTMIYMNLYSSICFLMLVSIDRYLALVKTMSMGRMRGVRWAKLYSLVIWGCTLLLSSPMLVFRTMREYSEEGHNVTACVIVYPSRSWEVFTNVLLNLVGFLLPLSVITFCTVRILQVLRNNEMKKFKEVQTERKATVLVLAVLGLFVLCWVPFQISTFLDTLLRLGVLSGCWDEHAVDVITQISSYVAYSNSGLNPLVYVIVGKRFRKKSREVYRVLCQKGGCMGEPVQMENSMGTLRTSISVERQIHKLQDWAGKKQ
# Read-outs that look alike come from different tables or passages of the source.
# How the values were obtained:
# bradykinin B2 receptor [1] = molecular target: bradykinin B2 receptor (Homo sapiens, UniProt P30411); experiment: Bradykinin-induced Ca2+ mobilization via B2R (FLIPR), U87-MG; type: cell-based
# bradykinin B2 receptor [2] = molecular target: T1, bradykinin B2 receptor (Mus musculus, UniProt P32299); type: cell-based; settings: primary astrocytes
# T1 construct: Gq-coupled receptors (i.e., B2R) that are endogenously expressed in astrocytes; endogenous in cells; host or cells: primary mouse cortical astrocytes (neonatal P2)
substance,measurement,setting,value
HOE-140,"inhibition of bradykinin-stimulated Ca2+ response, concentration dependence",bradykinin B2 receptor [1],dose-dependently inhibited
same,inhibition of bradykinin-induced Ca2+ signals,"bradykinin B2 receptor [1]; 5 μM HOE-140, pre-treatment 15 min, bradykinin up to 1 μM, U87-MG",completely abolished the Ca^2+ signals
same,"effect on Ca2+ response, HOE alone","bradykinin B2 receptor [1]; no bradykinin, U87-MG",did not affect the Ca^2+ response
same,effect on bradykinin-induced Ca2+ transient,bradykinin B2 receptor [2]; 0.1 μM HOE-140,no effect
same,effect on bradykinin-induced Ca2+ transient,bradykinin B2 receptor [2]; 1 μM HOE-140,no effect
same,effect on bradykinin-induced Ca2+ transient,bradykinin B2 receptor [2]; 5 μM HOE-140,suppressed
same,"effect on Ca2+ response, HOE alone",bradykinin B2 receptor [2]; no bradykinin,did not affect the Ca^2+ response
